Test results published in article PMC3713777 (Bioorganic & medicinal chemistry, 2010).

Tested on: SERT
Test: SERT binding, inhibition of [3H]paroxetine
Conditions: ratio of Ki values taken from reference 21

In the case of CCOC(=O)C1(c2ccccc2)CCN(C)CC1.Cl [Compound 1, meperidine, reference compound], the DAT/SERT is reported as 43.
